Results reported in patent US20170224654A1, “PHARMACEUTICAL COMPOSITIONS AND METHODS FOR COUNTERING CHEMOTHERAPY INDUCED CARDIOTOXICITY” (Stem Cell Theranostics, Inc., priority 2016, published 2017).

System: Human iPSC-derived cardiomyocytes
Test: DOX-induced DNA double strand break (γH2AX immunostaining)
Assay type: cell-based

`C[C@@H](CN1CC(=O)NC(=O)C1)N1CC(=O)NC(=O)C1` [dexrazoxane] was tested, and the “protection against DOX-induced DNA double strand break (γH2AX-positive cells)” value was “little or no protection”.
